Yeast mating assay 2: variants of the scFv Ab-95

Antigen: PDVDLGDISGINAS, a 14-residue peptide of the SARS-CoV-2 spike HR2 region.

Ab-95 is the parent antibody, in scFv form: VH, then the linker GGGGSGGGGSGGGGS, then VL. The heavy chain is unchanged in all variants.
VH: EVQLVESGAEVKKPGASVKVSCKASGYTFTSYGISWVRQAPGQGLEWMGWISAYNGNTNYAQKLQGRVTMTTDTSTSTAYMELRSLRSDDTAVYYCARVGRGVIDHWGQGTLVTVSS
VL: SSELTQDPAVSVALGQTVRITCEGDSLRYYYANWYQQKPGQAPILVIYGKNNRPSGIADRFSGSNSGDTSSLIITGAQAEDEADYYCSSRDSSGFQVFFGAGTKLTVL

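The parent was found by panning a naive human phage display library on the peptide. Library AAYL52 holds single substitutions and randomly drawn double and triple substitutions in the CDRs. Affinity was read by AlphaSeq, a pooled yeast mating assay with surface-displayed partners. Binding brings cells together so that they mate, and sequencing counts the barcode pairs among the diploids. Each replicate has its own calibration line, from reference interactions of the BCL2 family. Mating was done three times.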

Each variant's VL is given in full. The read-out is the apparent dissociation constant on a log10 scale (nM): the lower, the stronger. Averages over replicates are reported, and they cover detected replicates only. "ND" means that the variant was in the library but no mating with the target was seen in that replicate; the authors take this as a sign of poor binding, and no number exists. Background: pairings of library AAYL52 with three empty control strains gave a value in 28% of cases (median 3.91, 5th percentile 2.90). Values in that range, when seen in few replicates, are hard to tell from nonspecific mating. Also given: how often the same scFv was detected with the empty control strains, with their mean in brackets. For reference, the parent read 2.31 as the reference entry and 2.25 as a member of this library.

| # | VL | log10 Kd, replicates | mean, log10 nM | empty controls |
|---|---|---|---|---|
| 1 | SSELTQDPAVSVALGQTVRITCEGPSLRYYYANWYQQKPGQAPILVIYGKNNYPSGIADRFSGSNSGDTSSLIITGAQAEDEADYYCSSRDWSGFQVFFGAGTKLTVL | 3.57 / 4.80 / 3.48 | 3.95 | 4 of 9 (3.84) |
| 2 | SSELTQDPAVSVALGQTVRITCEGDSLRYYYANWYQQKPGQAPILVIYGKVIRDSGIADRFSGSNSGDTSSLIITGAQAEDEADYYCSSRDSSGFQVFFGAGTKLTVL | ND / ND / ND | ND | 0 of 9 |
| 3 | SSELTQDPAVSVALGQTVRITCEGNSLRYYYANWYQQKPGQAPILVIYGKNNRPSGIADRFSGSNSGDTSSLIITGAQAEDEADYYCHSRDSLGFQVFFGAGTKLTVL | 2.59 / 2.74 / 2.56 | 2.63 | 6 of 9 (3.95) |
| 4 | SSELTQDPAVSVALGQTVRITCEGDSLRYYYANWYQQKPGQAPILVIYGKNNCPSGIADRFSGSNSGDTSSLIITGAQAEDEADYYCPSRISSGFQVFFGAGTKLTVL | 3.69 / 4.01 / 4.35 | 4.02 | 3 of 9 (3.89) |
| 5 | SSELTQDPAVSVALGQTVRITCECDSLRYHYALWYQQKPGQAPILVIYGKNNRPSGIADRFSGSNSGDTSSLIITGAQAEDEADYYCSSRDSSGFQVFFGAGTKLTVL | 3.32 / 3.31 / 2.82 | 3.15 | 3 of 9 (3.95) |
| 6 | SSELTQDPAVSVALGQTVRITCEGDSLRYYYANWYQQKPGQAPILVIYGKNRRPSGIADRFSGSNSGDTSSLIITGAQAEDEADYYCSSRDNSEFQVFFGAGTKLTVL | 3.34 / 4.86 / 4.06 | 4.09 | 2 of 9 (5.08) |
| 7 | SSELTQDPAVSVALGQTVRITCEIDSLRYYYANWYQQKPGQAPILVIYGKNKRPSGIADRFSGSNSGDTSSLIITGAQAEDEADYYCSSRGSSGFQVFFGAGTKLTVL | ND / ND / ND | ND | 0 of 9 |
| 8 | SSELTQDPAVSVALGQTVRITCEGDSLRYYYANWYQQKPGQAPILVIYGVNNRPSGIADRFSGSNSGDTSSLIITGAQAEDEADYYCSSRDSNGFQGFFGAGTKLTVL | 3.08 / 3.97 / ND | 3.52 | 0 of 9 |
| 9 | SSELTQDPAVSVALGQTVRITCEGDSLRYYYANWYQQKPGQAPILVIYGKVGRPSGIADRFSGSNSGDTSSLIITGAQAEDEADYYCSSRDSSGQQVFFGAGTKLTVL | 3.26 / 4.79 / 2.55 | 3.54 | 2 of 9 (4.17) |
| 10 | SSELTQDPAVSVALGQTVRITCEGDSLRYYYANWYQQKPGQAPILVIYGKNNRPSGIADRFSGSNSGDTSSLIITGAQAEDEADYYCGSRDSSGFQVFFGAGTKLTVL | 2.44 / 2.48 / 2.87 | 2.60 | 2 of 9 (3.83) |
| 11 | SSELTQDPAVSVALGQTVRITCEFDSLRYYIANWYQQKPGQAPILVIYGKNNRPKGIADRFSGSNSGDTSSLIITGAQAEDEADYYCSSRDSSGFQVFFGAGTKLTVL | 4.31 / ND / ND | 4.31 | 2 of 9 (3.04) |
| 12 | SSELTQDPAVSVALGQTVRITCEGDDLRYYYANWYQQKPGQAPILVIYGINNRPSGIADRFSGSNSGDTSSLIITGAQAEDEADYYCSSRDSSFFQVFFGAGTKLTVL | 3.97 / 4.03 / 3.06 | 3.69 | 8 of 9 (3.84) |
| 13 | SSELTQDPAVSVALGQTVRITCEGDSIVYYYANWYQQKPGQAPILVIYGKNNRPSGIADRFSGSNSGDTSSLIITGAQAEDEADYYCSSRDCSGFQVFFGAGTKLTVL | ND / ND / ND | ND | 0 of 9 |
| 14 | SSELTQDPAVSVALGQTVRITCEGDSKRYYYVNWYQQKPGQAPILVIYGKNNRPSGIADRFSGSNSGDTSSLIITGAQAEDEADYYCSSRDSMGFQVFFGAGTKLTVL | 5.16 / ND / ND | 5.16 | 0 of 9 |
| 15 | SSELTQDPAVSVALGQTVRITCEGDSLRYYYAPWYQQKPGQAPILVIYGKNNGPSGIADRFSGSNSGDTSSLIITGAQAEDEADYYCSSRDSSIFQVFFGAGTKLTVL | ND / 3.32 / ND | 3.32 | 1 of 9 (3.29) |
| 16 | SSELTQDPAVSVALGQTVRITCEGRSMRYYYANWYQQKPGQAPILVIYGKKNRPSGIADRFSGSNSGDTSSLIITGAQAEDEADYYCSSRDSSGFQVFFGAGTKLTVL | ND / 5.17 / 3.66 | 4.42 | 3 of 9 (4.16) |
| 17 | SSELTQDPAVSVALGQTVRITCEGDSLRYWYANWYQQKPGQAPILVIYGKNNKPSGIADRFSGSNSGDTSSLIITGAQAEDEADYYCSIRDSSGFQVFFGAGTKLTVL | 2.20 / 2.38 / 2.09 | 2.22 | 4 of 9 (4.38) |

Again, the first 2 entries without any signal:

| VL | log10 Kd, replicates | mean, log10 nM | empty controls |
|---|---|---|---|
| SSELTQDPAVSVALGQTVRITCEGDSLRYYYANWYQQKPGQAPILVIYGKVIRDSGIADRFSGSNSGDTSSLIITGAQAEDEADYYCSSRDSSGFQVFFGAGTKLTVL | ND / ND / ND | ND | 0 of 9 |
| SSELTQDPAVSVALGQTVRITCEIDSLRYYYANWYQQKPGQAPILVIYGKNKRPSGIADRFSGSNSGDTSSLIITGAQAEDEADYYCSSRGSSGFQVFFGAGTKLTVL | ND / ND / ND | ND | 0 of 9 |

Source: Engelhart et al. 2022 (doi:10.1038/s41597-022-01779-4), MIT Lincoln Laboratory and A-Alpha Bio; data file from the FLAb repository.